These results are taken from PubChem BioAssay AID1259373 (The Scripps Research Institute Molecular Screening Center, 2018).

A short description of this assay: signal-interfering artefacts in bead proximity readout – biochemical, AlphaScreen, HTS, counter-screen, dose response (AID 1259373). The settings on record: AlphaScreen optical interference counterscreen, cell-free.

SMILES strings stand for the structures. The list shows a part of the results, in another mix than the full data. The source made the active and inactive calls. No rule for the calls is given here.

For orientation: IC50 means the point on the concentration scale where inhibition reaches its midpoint. Regarding `O=[N+]([O-])c1cc2[nH]c3cc([N+](=O)[O-])c([N+](=O)[O-])cc3c2cc1[N+](=O)[O-]`, the IC50 was inactive: > 6.48 µM.
